In patent US8354403B2, “Pyrrolidine derived beta 3 adrenergic receptor agonists” (Merck Sharp & Dohme Corp., priority 2009, dated 2013) one finds EC50 data, which are given here for eleven compounds.

By UniProt entry, the sequences of proteins in these tests, tags left out.
UniProt P13945, whole entry: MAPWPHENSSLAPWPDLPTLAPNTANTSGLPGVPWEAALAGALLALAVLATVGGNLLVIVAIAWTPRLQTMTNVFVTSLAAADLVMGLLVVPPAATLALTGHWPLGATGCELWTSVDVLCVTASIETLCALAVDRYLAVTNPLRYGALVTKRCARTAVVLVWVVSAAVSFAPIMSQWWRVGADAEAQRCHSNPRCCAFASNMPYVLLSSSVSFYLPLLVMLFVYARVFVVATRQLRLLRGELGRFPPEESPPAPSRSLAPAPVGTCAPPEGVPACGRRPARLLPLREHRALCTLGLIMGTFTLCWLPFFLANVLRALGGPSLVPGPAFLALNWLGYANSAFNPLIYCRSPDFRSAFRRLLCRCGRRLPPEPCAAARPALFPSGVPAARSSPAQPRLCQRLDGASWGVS

In the assay the target is human β3 adrenergic receptor (Homo sapiens, UniProt P13945). Put plainly: Beta-3 agonist in vitro functional assay: cAMP production (LANCE TR-FRET) in CHO cells stably transfected with the cloned β3 receptor. The format is cell-based. The conditions noted are these: read-out: Human β3 agonist functional activity. For orientation: cAMP levels reflect the balance of adenylyl cyclase and phosphodiesterase activity.

Read-outs that look alike come from different tables or passages of the source.

As for `CC([C@H]1[C@@H]2CN(C(=O)c3ccc(C[C@@H]4CC[C@H]([C@H](O)c5ccccc5)N4)cc3)C[C@@H]21)n1nccn1` (some centres unmarked), the EC50 (Table 6, cAMP, CHO cells) was 10 to 99.9 nM.

With `Nc1nnc([C@H]2[C@@H]3CN(C(=O)c4ccc(C[C@@H]5CC[C@H]([C@H](O)c6ccccc6)N5)cc4)C[C@@H]32)o1`, the EC50 (Table 6, cAMP, CHO cells) was in the range of 1 to 9.9 nM.

As for `O=C(c1ccc(C[C@@H]2CC[C@H]([C@H](O)c3ccccc3)N2)cc1)N1C[C@@H]2[C@H](C1)[C@H]2c1noc(CO)n1`, where the note is “Table 6, cAMP, CHO cells”, the EC50 fell in the range of 1 to 9.9 nM.

As to `COc1ccccc1CC1CCN(C(=O)c2ccc(C[C@@H]3CC[C@H]([C@H](O)c4ccccc4)N3)cc2)CC1`, the EC50 (Table 5, cAMP, CHO cells) was in the range of 10 to 99.9 nM.

`O=C(c1ccc(C[C@@H]2CC[C@H]([C@H](O)c3ccccc3)N2)cc1)N1CCC2(CCCC2(F)F)CC1`: under “Table 8, Beta-3 agonist in vitro functional assay”, the EC50 is 10 to 99.9 nM.

On to `CCOC(=O)[C@H]1[C@@H]2CN(C(=O)c3ccc(C[C@@H]4CC[C@H]([C@H](O)c5cccnc5)N4)cc3)C[C@@H]21`, for which, under “Table 6, cAMP, CHO cells”, the EC50 was in the range of 1 to 9.9 nM.

`O=C(c1ccc(CC2CCC(C(O)c3ccccc3)N2)cc1)N1CC2C(C1)C2Cn1cncn1` (centres unmarked): for the setting “Table 6, cAMP, CHO cells”, the EC50 lay in the range of 100 to 999 nM.

With `CC([C@H]1[C@@H]2CN(C(=O)c3ccc(C[C@@H]4CC[C@H]([C@H](O)c5ccccc5)N4)cc3)C[C@@H]21)n1cnnn1` (some centres unmarked), the EC50 (Table 6, cAMP, CHO cells) was 10 to 99.9 nM.

Turning to `CCc1nnc([C@H]2[C@@H]3CN(C(=O)c4ccc(C[C@@H]5CC[C@H]([C@H](O)c6ccccc6)N5)cc4)C[C@@H]32)o1`, the EC50 (Table 6, cAMP, CHO cells) fell in the range of 1 to 9.9 nM.

Turning to `O=C(c1ccc(C[C@@H]2CC[C@H]([C@H](O)c3ccccc3)N2)cc1)N1C[C@@H]2[C@H](C1)[C@H]2c1ncco1`, the EC50 (Table 6, cAMP, CHO cells) is 10 to 99.9 nM.

For the compound `O=C(c1ccc(C[C@@H]2CC[C@H]([C@H](O)c3ccccc3)N2)cc1)N1C[C@@H]2[C@H](C1)[C@H]2c1nnc(CO)o1`, the EC50 (Table 6, cAMP, CHO cells) fell in the range of 1 to 9.9 nM.
